Measured values reported in PMC10304631, “Stereoisomer-Dependent Membrane Association and Capacity for Insulin Delivery Facilitated by Penetratin” (Pharmaceutics, 2023).

Legend:
Caco-2 cell monolayer = details: cited from earlier work
Caco-2 cell monolayers [1] = details: Caco-2, pH 5; cited from earlier work
Caco-2 cell monolayers [2] = format: in vitro ADME, human
Experimental: Caco-2, HepG2, and IEC-6 cells were maintained in Corning Costar polystyrene culture flasks (75 cm^2 or 175 cm^2 surface area from Sigma-Aldrich) in either Dulbecco'[…] Eagles medium (Caco-2 and IEC-6 cells) or Eagle's minimum essential medium (HepG2 cells). […] The cells were kept in a humidified incubator at 37 °C and 5% CO2 and subcultured weekly at approximately 90% confluency by trypsinization. […] Plastic-bottom plates for Caco-2 cells were coated using collagen (8.93 μg/cm^2) prior to seeding. The variations in cell densities and incubation length were necessary to ensure uniform confluence (approx. 90%). […] After the final sampling, TEER was measured using the previously described equilibration procedure. Afterward, the viability of the cell in the monolayers was determined by using 350 μL of the MTS/PMS buffer (240 μg/mL MTS and 2.4 μg/mL PMS in hHBSS pH 7.4) and 1000 μL hHBSS on the apical and basolateral side, respectively. After 1 h, the MTS/PMS buffer was collected from the apical side and analyzed at 492 nm using a plate reader (FLUOStar OPTIMA, BMG LABTECH, Ortenberg, Germany). […] Scintillation fluid (2 mL) was mixed with each sample that was subsequently quantified by liquid scintillation (Perkin-Elmer Tri-Carb 2910 TR, Perkin Elmer, Boston, MA, USA). […] The calculation of Papp from the permeation experiments was calculated as described by Artursson et al.. […]

Fold increase in permeation of vancomycin compared to buffer alone (Caco-2 cell monolayers [2])	Compound	Morphology of Caco-2 cell monolayer (transmission electron micrographs) (Caco-2 cell monolayer)	Effect on insulin permeation across Caco-2 cell monolayers (Caco-2 cell monolayers [1])	Effect on insulin permeation across Caco-2 monolayer (Caco-2 cell monolayers [1])
five-fold	CC[C@@H](C)[C@@H](NC(=O)[C@@H](CCCCN)NC(=O)[C@H](NC(=O)[C@@H](CCC(N)=O)NC(=O)[C@H](N)CCCNC(=N)N)[C@H](C)CC)C(=O)N[C@H](Cc1c[nH]c2ccccc12)C(=O)N[C@H](Cc1ccccc1)C(=O)N[C@H](CCC(N)=O)C(=O)N[C@H](CC(N)=O)C(=O)N[C@H](CCCNC(=N)N)C(=O)N[C@H](CCCNC(=N)N)C(=O)N[C@H](CCSC)C(=O)N[C@H](CCCCN)C(=O)N[C@H](Cc1c[nH]c2ccccc12)C(=O)N[C@H](CCCCN)C(=O)N[C@H](CCCCN)C(=O)O [D-PEN, D-Penetratin]	did not result in morphologies different from that seen for the buffer control	increase the permeation of insulin	
only a small increase	CC[C@H](C)[C@H](NC(=O)[C@H](CCCCN)NC(=O)[C@@H](NC(=O)[C@H](CCC(N)=O)NC(=O)[C@@H](N)CCCNC(=N)N)[C@@H](C)CC)C(=O)N[C@@H](Cc1c[nH]c2ccccc12)C(=O)N[C@@H](Cc1ccccc1)C(=O)N[C@@H](CCC(N)=O)C(=O)N[C@@H](CC(N)=O)C(=O)N[C@@H](CCCNC(=N)N)C(=O)N[C@@H](CCCNC(=N)N)C(=O)N[C@@H](CCSC)C(=O)N[C@@H](CCCCN)C(=O)N[C@@H](Cc1c[nH]c2ccccc12)C(=O)N[C@@H](CCCCN)C(=O)N[C@@H](CCCCN)C(=O)O [L-PEN, L-Penetratin]		increase the permeation of insulin	increased insulin permeation
